The values that follow are results of earlier work, collected in US20250160636A1, “Mitigating Ocular Toxicity” (GlaxoSmithKline Intellectual Property Development Limited, priority 2022, published 2025).

The conditions of the data set: at the recommended dosages.

In the case of belantamab mafodotin [BLENREP®], the “Side effect indicated by current U.S. Prescribing Information” value is given as “ocular toxicity is a known side effect”.
